Reference: US20120244230A1, “POLYVALENT POLYNUCLEOTIDE NANOPARTICLE CONJUGATES AS DELIVERY VEHICLES FOR A CHEMOTHERAPEUTIC AGENT” (priority 2009, published 2012)

Tests used:
[1] = test system: HeLa cells
Description: (§1) Human cervical cancer HeLa, human osteosarcoma U2OS, human prostate PC3 cell lines were procured from the ATCC. A549 lung carcinoma cells were obtained from Prof. David E. Root, Whitehead Institute for Biomedical Research. HeLa, U2OS, and A549 Cells were grown at 37° C. in 5% CO2 in DMEM medium supplemented with 10% fetal bovine serum and 1% penicillin/streptomycin. PC3 cells were grown at 37° C. in 5% CO2 in RPMI supplemented with 10% fetal bovine serum and 1% penicillin/streptomycin. Cells were passed every 3 to 4 days and restarted from frozen stocks upon reaching pass number 20.
(§2) In order to investigate the efficacy of Pt-DNA-Au NPs, their ability to kill cancer cells of various origin was measured. […] Cells were seeded on a 96 well plate in 100 μL media and incubated for 24 hours. The cells were then treated with Pt-DNA-Au NP, 1, or cisplatin, separately at varying concentrations and incubated for 72 hours at 37° C. Medium was removed, cells were washed with PBS and then incubated with cell culture medium containing 20% 3-(4,5-dimethylthiazol-2-yl)-2,5-diphenyltetrazolium bromide (MTT). […] Cells were further incubated overnight and the absorbance was measured at 620 nm using a BioTek Synergy HT multi-detection microplate plate reader. […]

[2] = test system: U2OS cells
Description: as §1, §2

[NH2][Pt]([NH2])([OH])([Cl])([Cl])[O]C(=O)CCC(=O)O [Compound 1, c,c,t-[Pt(NH3)2Cl2(OH)(O2CCH2CH2CO2H)]]
cytotoxicity (in words) [1]: did not show any significant killing
cytotoxicity (in words) [2]: did not show any significant killing
